Measured values published in ChEMBL document CHEMBL6115006, “Discovery of potent quinone oxidoreductase 2 inhibitors to overcome TRAIL resistance of non-small cell lung cancer” (Eur J Med Chem, 2025).

Chains of the proteins cited; added tags and fusions are not shown.
UniProt P15559, whole entry: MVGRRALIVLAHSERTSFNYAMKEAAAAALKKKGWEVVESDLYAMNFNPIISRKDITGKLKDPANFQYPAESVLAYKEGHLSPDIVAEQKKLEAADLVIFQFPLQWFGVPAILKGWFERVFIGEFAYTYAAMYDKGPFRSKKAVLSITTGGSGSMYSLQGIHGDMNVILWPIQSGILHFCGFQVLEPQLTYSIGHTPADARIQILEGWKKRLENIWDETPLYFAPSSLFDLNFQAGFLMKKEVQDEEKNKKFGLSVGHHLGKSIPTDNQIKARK

Biological target: NAD(P)H dehydrogenase [quinone] 1 (Homo sapiens) (UniProt P15559)
Settings: time < 1.0 min

Compound	inhibition
COc1cc(-c2ccc3nc(N)oc3c2)cc(OC)c1OC	inactive
COc1ccc2ncc(-c3ccc(N)cc3)nc2c1	inactive
COc1cc(-c2cnc3cc(N)ccc3n2)cc(OC)c1OC	inactive
COc1cc2ncc(-c3ccc(N)cc3)nc2cc1OC	inactive
COc1cc(-c2ccc3nc(N)sc3c2)cc(OC)c1OC	inactive
COc1cc(-c2cnc3nc(N)ccc3c2)cc(OC)c1OC	inactive
COc1cc(-c2ccc3cc(N)ccc3c2)cc(OC)c1OC	inactive

Second part, the molecule after the results:

inhibition	Compound
inactive	COc1cc2ncc(-c3ccc(O)cc3)nc2cc1OC
inactive	COc1cc(-c2ncc3cc(N)ccc3n2)cc(OC)c1OC
inactive	COc1cc(-c2cnc3cc(N)ccc3c2)cc(OC)c1OC
inactive	COc1cc(-c2ccc3nc(N)ncc3c2)cc(OC)c1OC

Activity calls are given as the source filed them. The rule behind the calls is not given here.
